# Where two headings read alike, the source gives them in different places.
# Assays:
# [1] = in vivo
# [2] = human, in vivo
# [3] = human, in vivo; cited from earlier work
# [4] = in vivo, cited from earlier work
substance,measurement,setting,value
Teicoplanin,CL,"[1]; human, iv",0.008 ± ± 0.003 L/h/kg
same,"θCL, typical value of apparent clearance","[1]; human, iv",0.13 L/h
same,CL,"[1]; human, SD",0.013 ± 0.003 L/h/kg
same,"θCL, typical value of apparent clearance",[1],0.13 L/h
same,adverse reactions in patients with peak concentrations of 70–80 mg/L,[2],no significant adverse reactions
same,trough concentration at which development of hepatic function disorders would be more frequent,[3],over 30 mg/L
same,trough concentration at which elevated serum creatinine level would significantly increase,[3],> 60 mg/L
same,trough concentration suggested to be safe,[3],less than 30 mg/L
same,trough concentration with increased risk of organ toxicity,[3],greater than 40 mg/L
same,mean CL,[4]; human,0.317 mL/min/kg
same,half-life of elimination,[4],30 to 180 h

# Source: publication PMC7214819 (Frontiers in Pharmacology, 2020)
